The results in this text go back to ChEMBL document CHEMBL3102716, “High-throughput virtual screening identifies novel N'-(1-phenylethylidene)-benzohydrazides as potent, specific, and reversible LSD1 inhibitors” (J Med Chem, 2013).

The experiment relates to T47D. As to the kind of experiment: cells. Particulars: Homo sapiens, 96 h.
As usually defined, the IC50 is the midpoint of a concentration-inhibition curve. Low readings indicate inhibition by little substance, high ones a need for much substance. As for `O=C(N/N=C/c1ccccc1O)c1ccc(O)cc1`, the IC50 is 2.7 µM.

In the case of `C/C(=N\NC(=O)c1ccccc1)c1cc(Cl)ccc1O`, the IC50 was 0.352 µM. This IC50 lies about 7.7-fold lower than the previous one.

On to `O=C(N/N=C/c1cc(Cl)ccc1O)c1ccc(O)cc1`, for which the midpoint of inhibition, the IC50, lay at 0.821 µM.

Take `C/C(=N\NC(=O)c1ccc(O)cc1)c1ccccc1O`: the IC50 worked out at 0.971 µM.

The compound `O=C(N/N=C/c1ccccc1O)c1ccc(Br)cc1` came in with an IC50 of 0.096 µM.

Compound `O=C(N/N=C/c1ccccc1O)c1cccc(Cl)c1` gave an IC50 of 0.615 µM.
